From paper PMC9570967 (Molecules, 2022)

Amino acid sequences for entries named in this document (tags omitted).
UniProt P35372, whole entry, looked up: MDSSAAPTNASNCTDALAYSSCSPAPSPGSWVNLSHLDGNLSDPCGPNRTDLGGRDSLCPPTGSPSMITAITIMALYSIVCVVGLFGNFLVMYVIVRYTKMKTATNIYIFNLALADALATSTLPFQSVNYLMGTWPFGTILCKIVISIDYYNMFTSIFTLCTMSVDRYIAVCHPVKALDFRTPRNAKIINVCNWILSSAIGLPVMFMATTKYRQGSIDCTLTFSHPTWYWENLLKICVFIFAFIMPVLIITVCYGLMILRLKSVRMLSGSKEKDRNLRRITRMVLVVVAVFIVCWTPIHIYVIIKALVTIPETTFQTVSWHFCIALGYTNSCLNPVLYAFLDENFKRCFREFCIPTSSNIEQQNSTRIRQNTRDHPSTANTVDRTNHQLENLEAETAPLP

Target: human μ-opioid receptor (OPRM1) (Homo sapiens, UniProt P35372)
Experiment: Forskolin-induced cAMP accumulation assay, MOR antagonist mode
Settings: versus EC90 of fentanyl; for IC50: read-out: MOR Antagonist IC50 ± SEM; for MOR Antagonist %Imax ± SEM: normalized to naltrexone

| SMILES | IC50 | MOR Antagonist %Imax ± SEM | MOR Antagonist IC50 ± SEM |
| --- | --- | --- | --- |
| CC/C=C\[C@@H]1[C@@H]2CCC[C@@]1(c1cccc(O)c1)CCN2CCc1ccccc1 [Compound 26, 3-((1S,5R,9S)-9-((Z)-But-1-en-1-yl)-2-phenethyl-2-azabicyclo [3.3.1]nonan-5-yl)phenol] | 20 nM | 129.4 ± 3.4% |  |
| C/C=C\[C@@H]1[C@@H]2CCC[C@@]1(c1cccc(O)c1)CCN2CCc1ccccc1 [Compound 21, 3-((1S,5R,9S)-2-Phenethyl-9-((Z)-prop-1-en-1-yl)-2-azabicyclo [3.3.1]nonan-5-yl)phenol] | 45.6 nM | 39.8 ± 3.9% |  |
| CC/C=C\[C@H]1[C@@H]2CCC[C@@]1(c1cccc(O)c1)CCN2CCc1ccccc1 [Compound 27, 3-((1S,5R,9R)-9-((Z)-But-1-en-1-yl)-2-phenethyl-2-azabicyclo [3.3.1]nonan-5-yl)phenol] | 2.37 nM | 167.8 ± 10.6% | more potent than naltrexone |
| C/C=C\[C@H]1[C@@H]2CCC[C@@]1(c1cccc(O)c1)CCN2CCc1ccccc1 [Compound 20, 3-((1S,5R,9R)-2-Phenethyl-9-((Z)-prop-1-en-1-yl)-2-azabicyclo [3.3.1]nonan-5-yl)phenol] | 2.34 nM | 157.1 ± 4.0% | more potent than naltrexone |
| C=C[C@H]1[C@@H]2CCC[C@@]1(c1cccc(OC)c1)CCN2CCc1ccccc1 [Compound 13, (1S,5R,9R)-5-(3-Methoxyphenyl)-2-phenethyl-9-vinyl-2-azabicyclo [3.3.1]nonane] | 2720 nM | 128.5 ± 16.6% |  |
| C=C[C@@H]1[C@@H]2CCC[C@@]1(c1cccc(O)c1)CCN2CCc1ccccc1 [Compound 14, 3-((1S,5R,9S)-2-Phenethyl-9-vinyl-2-azabicyclo [3.3.1]nonan-5-yl)phenol] | 50.6 nM | 70.6 ± 8.0% |  |
| C=C[C@@H]1[C@H]2CCC[C@]1(c1cccc(O)c1)CCN2CCc1ccccc1 [Compound 9, 3-((1R,5S,9S)-2-Phenethyl-9-vinyl-2-azabicyclo [3.3.1]nonan-5-yl)phenol] | 45.6 nM | 18.8 ± 3.8% |  |
| C=C[C@H]1[C@@H]2CCC[C@@]1(c1cccc(O)c1)CCN2CCc1ccccc1 [Compound 15, 3-((1S,5R,9R)-2-Phenethyl-9-vinyl-2-azabicyclo [3.3.1]nonan-5-yl)phenol] | 3.58 nM | 130.8 ± 4.5% | more potent than naltrexone |
